Experimental data: ChEMBL document CHEMBL1154181 (J Med Chem, 2009)

System: Mus musculus
Assay: Antinociceptive activity against radiant heat-induced nociception in icv dosed CD1 mouse assessed as increase in tail withdrawal latency measured after 15 to 120 mins postdose by tail flick test
Settings: strain CD1, Tail

C=Cc1c(C)nn(CCC(=O)N2CCN(c3ccc(C)cc3)CC2)c(=O)c1N
ED50: 31.8 µg
